The source of these data is US20110021471A1, “REDUCING Abeta42 LEVELS AND Abeta AGGREGATION” (priority 2007, published 2011).

The test concerns Tg2576 mice. In words: Acute oral dosing of Tg2576 mice, brain soluble Aβ after 4 hours. In kind it is in vivo, mouse. The protocol: FIG. 2. Aβ modulating agents can inhibit Aβ aggregation, and agents that bind Aβ amyloid can modulate Aβ42 production. […] (C) Aβ42 modulating agents inhibit naturally secreted oligomer formation. 7PA2 cells were treated with fenofibrate, FT-1, or FT-9 at 50 μM and oligomers assessed by IP Western blotting. […] (D) FT-9, an Aβ42 reducing agent, can inhibit Aβ42 aggregation in vitro.
FIG. 13. Compounds that bind Aβ are GSMs in vitro and in vivo. (A) A cell-based screen of Aβ-binders identified molecules that increase Aβ42 (DAPH) or decrease Aβ42 (Bis-ANS, X-34 or chrysamine G (CG)). Data are mean±s.e.m., n=3. (B) X-34 is an Aβ42-lowering GSM. Changes in amyloid-β peptide amounts after X-34 treatment are shown. Data are presented as percentage control±s.e.m., n=3. EC50 values were calculated. […] NA, not applicable. (C) X-34 binds to APP(C100)-Flag and decreases labeling by GSM photoprobes. Biotin incorporation into APP by Fen-B and Flurbi-BpB is presented as percentage of control (peptide without X-34)±s.e.m., n=2. (D) X-34 lowers Aβ42 in Tg2576 mice after 4 h. […] Data are presented as amyloid-β percentage of control relative to vehicle±s.e.m. Animals per group (n). Asterisk, P,0.05; two asterisks, P,0.01; ANOVA with Dunnett's post-hoc analysis.
Finally, X-34 was tested for its ability to modulate Aβ42 amounts in an APP transgenic mouse (Tg2576).

As to `C[C@@H](C(=O)O)c1ccc(-c2ccccc2)c(F)c1` [Tarenflurbil], the “Aβ40 (percentage of control)” value (50 mg kg21, Tg2576 mice, 4 h) worked out at 123%. In addition, the “selectivity of Aβ reduction (Aβ42 vs Aβ40)” value (Tg2576, oral gavage, 4 hours) is “selective reductions of Aβ42”.
